## scFv variants of Ab-91 (heavy chain) against a SARS-CoV-2 spike peptide

Target peptide (SARS-CoV-2 spike, HR2 region): PDVDLGDISGINAS

Each scFv is VL, a (GGGGS)3 linker, VH, as in the parent Ab-91, and differs from it in the CDRs of the heavy chain only.
VL: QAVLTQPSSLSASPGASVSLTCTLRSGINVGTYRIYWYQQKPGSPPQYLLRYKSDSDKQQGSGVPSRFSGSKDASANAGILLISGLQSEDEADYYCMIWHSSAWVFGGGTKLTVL
VH: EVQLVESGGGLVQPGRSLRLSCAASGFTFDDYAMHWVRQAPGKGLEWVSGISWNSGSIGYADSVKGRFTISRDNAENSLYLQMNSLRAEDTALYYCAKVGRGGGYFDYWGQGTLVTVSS

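The parent was found by panning a naive human phage display library on the peptide. AAYL51 was designed without a model: most single CDR substitutions and a random sample of double and triple ones. The scFvs were displayed on barcoded MATa yeast, the peptide on MATalpha yeast. The frequency of each diploid, read from paired DNA barcodes, reflects how well the two displayed proteins bind. Read counts were normalised to the haploid input and turned into Kd by a linear fit to BCL2-family pairs of known affinity, for each replicate. The assay was run in three technical replicates.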

Positions count from residue 1 of the parent VH; S57A puts A in place of S. Every variant below is changed at G102 of the VH (sequential numbering). The Kd shown is the geometric mean over detected replicates; a lower Kd is a better binder. An entry "nd" has no value in the source: the pair was not observed among the diploids in any replicate. This suggests poor binding but is not conclusive. The list is sorted by this average, lowest first, undetected variants last. As a blank, each scFv also met three strains without target: over library AAYL51, 21% of these pairings were detected, typically at 34 µM and seldom below 1.8 µM.

With S57A+G102R+Y108W the result was 84 nM (3 of 3 replicates).
With G102H the result was 130 nM (3 of 3 replicates).
With G102M the result was 2.0 µM (2 of 3 replicates).
With M34L+G50V+G102T the result was 2.9 µM (1 of 3 replicates).
With G102Q+G104W+F106T the result was 3.2 µM (1 of 3 replicates).
With A33S+G102R+Y105N the result was 4.5 µM (1 of 3 replicates).
With M34L+G100R+G102M the result was 8.3 µM (3 of 3 replicates).
With G26R+G102Q+G104K the result was 13 µM (2 of 3 replicates).
With F29P+G102N+D107W the result was 14 µM (1 of 3 replicates).
With I51F+G102I the result was 35 µM (3 of 3 replicates).
With G50I+I51S+G102T the result was 39 µM (2 of 3 replicates).
With G102R+Y105F the result was 41 µM (2 of 3 replicates).
With M34C+V99H+G102Y the result was 47 µM (1 of 3 replicates).
With H35N+G50E+G102F the result was 51 µM (2 of 3 replicates).
With A33L+G59C+G102A the result was 51 µM (2 of 3 replicates).
With G26Q+G102P+Y105K the result was 75 µM (2 of 3 replicates).
With Y32A+H35L+G102I the result was 140 µM (1 of 3 replicates).
With K65I+G102N+G103I the result was 160 µM (3 of 3 replicates).
With M34V+G59Y+G102P the result was 180 µM (1 of 3 replicates).
With G26M+S63W+G102V the result was 180 µM (1 of 3 replicates).
With F27Y+Y32V+G102W the result was 190 µM (2 of 3 replicates).
With D31H+G102M+G104S the result was 200 µM (3 of 3 replicates).
With F29A+D62A+G102R the result was 240 µM (2 of 3 replicates).
With I51G+K65Q+G102S the result was 690 µM (1 of 3 replicates).
With V99S+G102S+Y108P the result was nd (0 of 3 replicates).
With G102H+G103E+D107L the result was nd (0 of 3 replicates).
With G26R+W53P+G102R the result was nd (0 of 3 replicates).
With D31Y+V99M+G102M the result was nd (0 of 3 replicates).
With A33L+M34I+G102K the result was nd (0 of 3 replicates).
With D31Y+G102Q+G103D the result was nd (0 of 3 replicates).
With A33W+S55N+G102A the result was nd (0 of 3 replicates).
With D31T+G102C the result was nd (0 of 3 replicates).
With S52N+G102L+F106E the result was nd (0 of 3 replicates).
With G56V+S57Y+G102V the result was nd (0 of 3 replicates).
With F27Q+F29D+G102P the result was nd (0 of 3 replicates).
With F29E+D30T+G102P the result was nd (0 of 3 replicates).
With K65C+V99K+G102R the result was nd (0 of 3 replicates).
With M34E+G102F+G103M the result was nd (0 of 3 replicates).
With I51Y+S57G+G102L the result was nd (0 of 3 replicates).
With G50D+W53Y+G102A the result was nd (0 of 3 replicates).
With H35C+S57R+G102Q the result was nd (0 of 3 replicates).
With S52E+G102V the result was nd (0 of 3 replicates).

Picked from the list: the 6 lowest averages where every replicate gave a value.

changes,Kd,replicates with signal
S57A+G102R+Y108W,84 nM,3 of 3
G102H,130 nM,3 of 3
M34L+G100R+G102M,8.3 µM,3 of 3
I51F+G102I,35 µM,3 of 3
K65I+G102N+G103I,160 µM,3 of 3
D31H+G102M+G104S,200 µM,3 of 3

Source: Engelhart et al. 2022 (doi:10.1038/s41597-022-01779-4), MIT Lincoln Laboratory and A-Alpha Bio; data file from the FLAb repository.